Values of other authors as cited in US20080081827A1, “Use of a Pyrazole-Derived Compound that is an Antagonist for Cannabinoid CB1 Receptors, for Treating or Preventing Chronic Bronchitis or Chronic Obstructive Bronchopneumopathy” (SANOFI AVENTIS, priority 2004, published 2008).

System: cannabinoid CB1 receptors
Details: cited from earlier work

## Cc1c(C(=O)NN2CCCCC2)nn(-c2ccc(Cl)cc2Cl)c1-c1ccc(Cl)cc1 [rimonabant, N-piperidino-5-(4-chlorophenyl)-1-(2,4-dichlorophenyl)-4-methylpyrazole-3-carboxamide]
Administration of capsaicin
  effect on bronchoconstriction and cough caused by capsaicin: significantly increases the bronchoconstriction and the cough
Blocking CB1 receptors alone
  bronchomotor effects per se: no bronchomotor effects per se
